The chains behind the UniProt entries cited, without tags or fusion partners.
UniProt P21728, whole entry: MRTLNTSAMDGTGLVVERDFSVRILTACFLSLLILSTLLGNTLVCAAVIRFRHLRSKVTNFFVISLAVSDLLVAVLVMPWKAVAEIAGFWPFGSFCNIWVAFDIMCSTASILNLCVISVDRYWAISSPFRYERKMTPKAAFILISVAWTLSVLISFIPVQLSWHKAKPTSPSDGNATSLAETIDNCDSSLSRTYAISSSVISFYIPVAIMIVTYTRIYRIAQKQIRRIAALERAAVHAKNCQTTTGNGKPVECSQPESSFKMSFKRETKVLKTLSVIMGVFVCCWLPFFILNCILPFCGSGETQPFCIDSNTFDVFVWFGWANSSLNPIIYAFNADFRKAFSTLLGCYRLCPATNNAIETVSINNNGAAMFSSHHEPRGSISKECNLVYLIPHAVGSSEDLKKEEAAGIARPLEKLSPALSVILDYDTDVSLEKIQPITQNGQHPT

Each molecule was assayed against Human D1 Receptor (Homo sapiens (Human), UniProt P21728) (assay: Human D1 receptor binding assay ([3H]-SCH23390 competition binding)). Settings: over-expressing LTK human cell lines; 0.5 nM [3H]-SCH23390; 30 min at 37° C.; footnote a = single determination, b = geometric mean of ≧5 determinations; read-out: Human D1 Receptor Binding, Ki (nM); Geometric mean of 2-4 determinations (unless otherwise indicated).
Method: D1 binding assays were performed using over-expressing LTK human cell lines. […] These ligand and tissue concentrations were used in time course studies to determine linearity and equilibrium conditions for binding. […] The pellet was resuspended in assay buffer [50 mM Tris (pH 7.4@ RT) containing 4 mM MgSO4 and 0.5 mM EDTA]. […] Non-specific binding was determined by radioligand binding in the presence of a saturating concentration of (+)-Butaclamol (10 μM), a D1 antagonist After a 30 minute incubation period at 37° C., assay samples were rapidly filtered through Unifilter-96 GF/B PEI-coated filter plates and rinsed with 50 mM Tris buffer (pH 7.4 at 4° C.). […] Ki values were calculated according to the Cheng-Prusoff equation: […]
Work on `Cc1cc(Oc2nccn3cccc23)ccc1-c1c(C)ncc2nccn12` (single isomer, unassigned) [Example 3, (+)-6-methyl-5-[2-methyl-4-(pyrrolo[1,2-a]pyrazin-1-yloxy)phenyl]imidazo[1,2-a]pyrazine] yielded a Ki of 5.5 nM.
For `Cc1cc(Oc2nccn3cccc23)ccc1-c1c(C)ncc2nccn12` (single isomer, unassigned) [Example 2, (−)-6-methyl-5-[2-methyl-4-(pyrrolo[1,2-a]pyrazin-1-yloxy)phenyl]imidazo[1,2-a]pyrazine], the Ki was 20.5 nM.
In the case of `Cc1cc(Oc2nccn3cccc23)ccc1-c1c(C)ncc2nccn12` [Example 1, 6-methyl-5-[2-methyl-4-(pyrrolo[1,2-a]pyrazin-1-yloxy)phenyl]imidazo[1,2-a]pyrazine], the Ki is reported as 4.5 nM.

From patent US9856263B2, “Heteroaromatic compounds and their use as dopamine D1 ligands” (PFIZER INC., priority 2014, dated 2018)
